Consider one compound from patent publication US20250368686A1, “PEPTIDE DRUGS FOR S[…] D[…] BLOCKING HOMO- AND HETERO-DIMERIZATION OF OPIOID RECEPTORS” (OKINAWA INSTITUTE OF SCIENCE AND TECHNOLOGY SCHOOL …, priority 2022, published 2025).

This experiment deals with MOR. In kind it is cell-based, rat. The conditions noted are these: D- and K-cells.

Turning to `CN1CC[C@]23c4c5ccc(O)c4O[C@H]2[C@@H](O)C=C[C@H]3[C@H]1C5` [morphine], the “intracellular Ca2+ mobilisation” value is “not”.
